Values of other authors as cited in patent US20260053724A1, “ORAL CARE COMPOSITIONS” (Soluta Consult GmbH, priority 2022, published 2026).

Details: water at 20° C., 1013 mbar and pH 7; not SO means less than 0.0001% (w/w)

solubility in water (SO): not soluble in water
Substance: calcium hydroxyapatite
